Data reported in PMC9198545, “Pharmacokinetics and Pharmacodynamics of Fungal Defensin NZX Against Staphylococcus aureus-Induced Mouse Peritonitis Model” (Frontiers in Microbiology, 2022).

Tested on: S. aureus E48
Format: in vivo, mouse
Conditions: 20 mg/kg intravenous single injection 2 h post-infection; 2 × 10^8 CFU/ml, 0.5 ml i.p.; 7 days; n = 6

For `CCC[C@@H]1C[C@@H](C(=O)N[C@@H]([C@H]2O[C@H](SC)[C@H](O)[C@@H](O)[C@H]2O)[C@H](C)Cl)N(C)C1` [Clindamycin], the “survival rate of the mice” value was “all the mice were dead”.
